Drawing on ChEMBL document CHEMBL2177038 (J Med Chem, 2012), this text covers EC50 for 1 molecule.

By UniProt entry, the sequences of proteins in these tests, tags left out.
UniProt P34972, whole entry: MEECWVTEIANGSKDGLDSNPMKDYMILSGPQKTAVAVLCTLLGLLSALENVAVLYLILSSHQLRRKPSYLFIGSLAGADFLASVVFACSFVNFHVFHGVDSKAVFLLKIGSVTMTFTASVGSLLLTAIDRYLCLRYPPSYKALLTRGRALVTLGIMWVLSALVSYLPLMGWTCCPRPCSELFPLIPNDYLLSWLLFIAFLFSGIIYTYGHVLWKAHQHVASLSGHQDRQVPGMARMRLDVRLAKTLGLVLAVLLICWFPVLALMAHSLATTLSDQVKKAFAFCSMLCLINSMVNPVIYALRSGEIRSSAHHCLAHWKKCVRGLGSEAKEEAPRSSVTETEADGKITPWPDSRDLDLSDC

This experiment addresses Cannabinoid receptor 2 (Homo sapiens, UniProt P34972).

For orientation: EC50 means the concentration needed to bring the measured effect to its halfway point. The low end stands for higher potency in that assay, the high end for lower potency in that assay. For the molecule `CCCCCCC(C)(C)c1cc(OC)c([C@H]2C=C(CO)[C@H]3C[C@@H]2C3(C)C)c(OC)c1`, the EC50 came to 83.8 nM.
